Measured values taken from patent US20110275102.

How the values were obtained:
[1] = biological target: T1, RPRTSSF
T1 chain: RPRTSSF

[2] = biological target: T2, RPRTSTF
T2 chain: RPRTSTF

[3] = biological target: T3, Crosstide GRPRTSSFAEG
T3 chain: GRPRTSSFAEG

B1: p70 S6 kinase purified from rat liver (protein)
chain: MRRRRRRDGFYPAPDFRHREAEDMAGVFDIDLDQPEDAGSEDELEEGGQLNESMDHGGVGPYELGMEHCEKFEISETSVNRGPEKIRPECFELLRVLGKGGYGKVFQVRKVTGANTGKIFAMKVLKKAMIVRNAKDTAHTKAERNILEEVKHPFIVDLIYAFQTGGKLYLILEYLSGGELFMQLEREGIFMEDTACFYLAEISMALGHLHQKGIIYRDLKPENIMLNHQGHVKLTDFGLCKESIHDGTVTHTFCGTIEYMAPEILMRSGHNRAVDWWSLGALMYDMLTGAPPFTGENRKKTIDKILKCKLNLPPYLTQEARDLLKKLLKRNAASRLGAGPGDAGEVQAHPFFRHINWEELLARKVEPPFKPLLQSEEDVSQFDSKFTRQTPVDSPDDSTLSESANQVFLGFTYVAPSVLESVKEKFSFEPKIRSPRRFIGSPRTPVSPVKFSPGDFWGRGASASTANPQTPVEYPMETSGIEQMDVTTSGEASAPLPIRQPNSGPYKKQAFPMISKRPEHLRMNL
[1]
  Vmax: 705 U/mg
[2]
  Vmax: 590 U/mg
[3]
  Vmax: 1270 U/mg
